{"sequences": {"note": "The chains behind the UniProt entries cited, without tags or fusion partners. Residues count along the entry.", "UniProt P19111, 20-533": "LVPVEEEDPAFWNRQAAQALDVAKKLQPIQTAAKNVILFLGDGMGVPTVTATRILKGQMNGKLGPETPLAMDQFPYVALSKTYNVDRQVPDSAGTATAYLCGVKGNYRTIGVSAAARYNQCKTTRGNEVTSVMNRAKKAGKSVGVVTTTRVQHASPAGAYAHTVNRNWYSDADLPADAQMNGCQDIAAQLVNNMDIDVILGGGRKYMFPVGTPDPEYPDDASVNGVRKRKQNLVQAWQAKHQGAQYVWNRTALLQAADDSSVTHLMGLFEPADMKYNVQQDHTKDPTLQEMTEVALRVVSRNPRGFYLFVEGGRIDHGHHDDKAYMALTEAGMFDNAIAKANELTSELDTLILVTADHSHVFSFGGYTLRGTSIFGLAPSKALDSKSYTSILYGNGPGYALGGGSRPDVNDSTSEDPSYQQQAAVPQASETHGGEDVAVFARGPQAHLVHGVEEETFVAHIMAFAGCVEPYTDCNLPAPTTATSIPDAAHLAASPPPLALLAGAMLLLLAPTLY"}, "source": "paper PMC4354951", "about": "(European journal of medicinal chemistry, 2008)", "molecular_target": "calf intestine alkaline phosphatase (Bos taurus, UniProt P19111)", "conditions": "37 °C"}
{"substance": "2-MeS–ATP-α-B [1A]", "values": [{"measurement": "fraction remaining after incubation with alkaline phosphatase", "setting": "12 min, 0.25 U alkaline phosphatase", "value": 40, "unit": "%"}, {"measurement": "amount remaining after incubation with alkaline phosphatase", "setting": "100 min, HPLC-MS", "value": "only traces"}]}
